# Tested on: mice
# Conditions: 2.0 mg/kg oral 1 h before test, mean ± S.E.M.
smiles,measurement,value
"O=C1CCc2ccc(OCCCCN3CCN(c4cccc(Cl)c4Cl)CC3)cc2N1 [Aripiprazole, reference compound]",forelimb catalepsy duration (longest),28.84 ± 4.72 s

# — article PMC5931996 (Scientific Reports, 2018)
